This passage reports binding signal results from publication PMC7723054.

Some of the results follow.

What all share (experiment): FOREST: bead pull-down of RNA structure library v1, barcode microarray; U1A/LIN28A: 20 mM HEPES pH 7.5, 80 mM KCl, 20 mM NaCl, 10% glycerol, 2 mM DTT, 0.1 ug/uL BSA, 4 C; BG4/CIRBP/DHX36: 10 mM Tris-HCl pH 7.5, 100 mM KCl (or LiCl),; high values mean tight binding
One assay addresses U1A (Homo sapiens, UniProt P09012).
The next assay concerns the target T1, LIN28A (human?, UniProt Q9H9Z2 1-209).
T1 sequence: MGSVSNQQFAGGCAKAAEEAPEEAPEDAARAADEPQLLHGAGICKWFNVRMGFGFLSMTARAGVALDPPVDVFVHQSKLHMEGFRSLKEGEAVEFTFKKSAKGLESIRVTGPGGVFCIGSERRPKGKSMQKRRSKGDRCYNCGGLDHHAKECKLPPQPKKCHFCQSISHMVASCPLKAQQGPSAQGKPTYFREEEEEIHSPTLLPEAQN

The next assay has as its target T2, CIRBP (Homo sapiens, UniProt Q14011 1-172).
T2 sequence: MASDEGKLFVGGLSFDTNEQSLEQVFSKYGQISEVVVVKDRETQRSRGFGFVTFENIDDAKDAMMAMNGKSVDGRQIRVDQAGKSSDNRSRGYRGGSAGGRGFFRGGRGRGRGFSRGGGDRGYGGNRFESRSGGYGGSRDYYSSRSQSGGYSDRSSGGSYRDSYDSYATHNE

Another assay deals with T3, DHX36 (Homo sapiens, UniProt Q9H2U1 1-1008).
T3 sequence: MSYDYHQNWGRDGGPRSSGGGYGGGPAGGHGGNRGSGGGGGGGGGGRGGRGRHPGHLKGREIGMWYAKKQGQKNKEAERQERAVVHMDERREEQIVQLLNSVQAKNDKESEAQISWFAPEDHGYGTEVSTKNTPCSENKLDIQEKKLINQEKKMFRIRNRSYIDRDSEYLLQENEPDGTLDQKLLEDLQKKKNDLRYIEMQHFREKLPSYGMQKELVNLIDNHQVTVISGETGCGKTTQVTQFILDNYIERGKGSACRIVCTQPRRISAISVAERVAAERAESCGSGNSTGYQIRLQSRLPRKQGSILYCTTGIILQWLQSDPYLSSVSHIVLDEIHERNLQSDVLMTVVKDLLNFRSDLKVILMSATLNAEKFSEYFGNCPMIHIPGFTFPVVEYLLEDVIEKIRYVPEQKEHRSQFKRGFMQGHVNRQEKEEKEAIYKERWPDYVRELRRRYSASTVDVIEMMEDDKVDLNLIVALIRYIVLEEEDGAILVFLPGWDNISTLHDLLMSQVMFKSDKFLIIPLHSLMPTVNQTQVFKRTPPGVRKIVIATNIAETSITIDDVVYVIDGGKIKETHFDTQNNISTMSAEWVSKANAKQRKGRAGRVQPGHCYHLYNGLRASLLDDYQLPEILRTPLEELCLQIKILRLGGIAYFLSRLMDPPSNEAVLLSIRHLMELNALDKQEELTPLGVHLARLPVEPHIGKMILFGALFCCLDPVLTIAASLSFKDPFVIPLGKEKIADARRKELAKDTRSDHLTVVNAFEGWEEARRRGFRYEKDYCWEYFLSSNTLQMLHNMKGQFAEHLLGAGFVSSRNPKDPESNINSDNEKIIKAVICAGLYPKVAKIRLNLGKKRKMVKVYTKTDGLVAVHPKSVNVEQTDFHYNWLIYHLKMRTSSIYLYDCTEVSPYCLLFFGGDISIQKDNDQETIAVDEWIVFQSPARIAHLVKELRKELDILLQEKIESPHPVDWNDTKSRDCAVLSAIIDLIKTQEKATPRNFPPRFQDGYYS

B1: hsa-mir-5188 (structured_RNA)
RNA: GGGAAGCAUCAACAUAGGUAUCCUUGGCGGUGUACGAAGUUUCAGCGAUUAUUGUAAGCAGGAUCCAUUCAAUAAUCGCUGAAGCUUCGUGCAC
As for B1, the binding signal with U1A was 0.0775 z-score; in the assay with LIN28A it was 1.05 z-score; with CIRBP, 2.04 z-score; with DHX36, -0.657 z-score.

B2: hsa-mir-758 (structured_RNA)
RNA: GGGAAUAAAAUGGGGAGCGGUUUACAGAGGUGUACGAAGUUUCAGCCACACGCUUUAUUUGUGCCGUUUGGCUGAAGCUUCGUGCAC
With B2, the binding signal in the assay with U1A is 0.0516 z-score; in the assay with LIN28A, 0.448 z-score; with CIRBP, -0.474 z-score; with DHX36, 0.301 z-score.

B3: hsa-mir-4498 (structured_RNA)
RNA: GGGACGAUUAAGGGAGAAUAUACCGCCUGGUGUACGAAGUUUCAGCGCUGCAGAUCUUUGUCUAAGCAGCGCUGAAGCUUCGUGCAC
In the case of B3, the binding signal with U1A is 0.0522 z-score; with LIN28A, -1.03 z-score; with CIRBP it was 0.301 z-score; in the assay with DHX36 it was 1.08 z-score.

B4: hsa-mir-7156 (structured_RNA)
RNA: GGGCAGGACGCUAUGUCCGUGUAACUCCGGUGUACGAAGUUUCAGCCAGAGUGUGCAUGGCAGGCUGCUGAAGCUUCGUGCAC
For the molecule B4, the binding signal with U1A is 0.0687 z-score; with LIN28A it was -0.126 z-score; in the assay with CIRBP, 0.0315 z-score; with DHX36 it was -0.465 z-score.

B5: hsa-mir-1972-1_1972-2 (structured_RNA)
RNA: GGGAAUAAUACUGUAAGGGAGCCUGGAUGGUGUACGAAGUUUCAGCUUAAAUGUGUCAUUUAAAAAUUCAGGCUGAAGCUUCGUGCAC
On to B5, for which the binding signal stood at 0.0618 z-score with U1A, 0.875 z-score in the assay with LIN28A, 0.0639 z-score in the assay with CIRBP and 0.344 z-score with DHX36.

B6: PARIS_ID25 (structured_RNA)
RNA: GGGAAAGGAGCCAGUGAUAUGUUAGCCUGGUGUACGAAGUUUCAGCAAAUCUUAAUAUUUAUGUAUGUAUUUUAUUAUUACCGGUUUGCUGAAGCUUCGUGCAC
Turning to B6, the binding signal in the assay with U1A was found to be 0.0726 z-score; with LIN28A, 1.02 z-score; with CIRBP, 0.393 z-score; with DHX36, 0.61 z-score.

B7: hsa-mir-4754 (structured_RNA)
RNA: GGGAAACGAUCAGAAGUGUACAGGUUAUGGUGUACGAAGUUUCAGCGAGUGAGGCCCAGUGGUCACCGCCGCCCUCGCUGAAGCUUCGUGCAC
Turning to B7, the binding signal was 0.0651 z-score with U1A, 1.02 z-score with LIN28A, 0.229 z-score with CIRBP and 0.0103 z-score with DHX36.

B8: hsa-mir-1246 (structured_RNA)
RNA: GGGAACUCUACUCGGGCGACAUCACUACGGUGUACGAAGUUUCAGCCAGGAGUGGACACCUGGCUGAAGCUUCGUGCAC
B8: the binding signal with U1A was 0.0668 z-score; with LIN28A it was -1.2 z-score; with CIRBP, 0.242 z-score; in the assay with DHX36 it was -1.25 z-score.

B9: hsa-mir-4538 (structured_RNA)
RNA: GGGAAGGUCAGGGGUUAAUGUGAUAACGGGUGUACGAAGUUUCAGCCUGAACUGGGCUGGGUUGAGCUGGGCUGGGCUGAGUUGAGGCUGAAGCUUCGUGCAC
As to B9, the binding signal worked out at 0.0724 z-score in the assay with U1A, 1.78 z-score with LIN28A, 3.13 z-score with CIRBP and 4.18 z-score with DHX36.

B10: hsa-mir-4751 (structured_RNA)
RNA: GGGAAAGCAGAUAACCCCGCGUCCUCUUGGUGUACGAAGUUUCAGCAGGGCAGGGGUGUGGCUGCUGAAGCUUCGUGCAC
B10: the binding signal with U1A was found to be 0.0705 z-score; in the assay with LIN28A it was 0.117 z-score; with CIRBP, 1.1 z-score; in the assay with DHX36, 1.17 z-score.

B11: hsa-mir-4418 (structured_RNA)
RNA: GGGAACCGAAAGUUUCGGACCCAGGGAUGGUGUACGAAGUUUCAGCGGUGGUUGUGGGAGUCACUGCUGAAGCUUCGUGCAC
Regarding B11, the binding signal with U1A is 0.069 z-score; with LIN28A, -0.366 z-score; with CIRBP it was -0.198 z-score; in the assay with DHX36, 1.42 z-score.

B12: hsa-mir-7160 (structured_RNA)
RNA: GGGAUAUCGAGGUGCAAGGCUCGAAUAAGGUGUACGAAGUUUCAGCUGUGCCCCGUACCGGACAGGGCUGAAGCUUCGUGCAC
As to B12, the binding signal with U1A was 0.0491 z-score; with LIN28A, -0.326 z-score; with CIRBP it was -0.802 z-score; with DHX36 it was 1.36 z-score.

B13: hsa-mir-516b-2 (structured_RNA)
RNA: GGGAUGAAAUAUGCGUGUCAAAGCUCUGGGUGUACGAAGUUUCAGCAGCACUUUGUGUUUUGUGAAAGAAAGUGCUGCUGAAGCUUCGUGCAC
In the case of B13, the binding signal in the assay with U1A is 0.054 z-score; with LIN28A, 1.48 z-score; with CIRBP it was 0.322 z-score; with DHX36 it was 0.407 z-score.

B14: hsa-mir-612 (structured_RNA)
RNA: GGGAAGGUCCUUUAUACGGCAGACAUCCGGUGUACGAAGUUUCAGCCCUUAGCACUAGCAGGAGGGCUGAAGCUUCGUGCAC
For B14, the binding signal with U1A is 1.71 z-score; with LIN28A it was -0.306 z-score; with CIRBP it was -0.0592 z-score; with DHX36, -0.953 z-score.

B15: hsa-mir-5693 (structured_RNA)
RNA: GGGAGUAACCGUCACGUGUGCAGUCGAUGGUGUACGAAGUUUCAGCUGCUGUGAGCUAGCCAGCAGGCUGAAGCUUCGUGCAC
As for B15, the binding signal in the assay with U1A is 0.0634 z-score; with LIN28A, -1.39 z-score; in the assay with CIRBP, -1.26 z-score; with DHX36, 0.187 z-score.

B16: hsa-mir-3129 (structured_RNA)
RNA: GGGAGACACGCAACGUAAGACGAUAACCGGUGUACGAAGUUUCAGCGUUUGCCUGUUAAUGAAUUCAAACGCUGAAGCUUCGUGCAC
In the case of B16, the binding signal with U1A was 0.0611 z-score; with LIN28A, -0.109 z-score; with CIRBP, -0.026 z-score; with DHX36, 1.73 z-score.

B17: hsa-mir-8087 (structured_RNA)
RNA: GGGAAGAUAGUAAGGGUUGAACGAGCCGGGUGUACGAAGUUUCAGCGGGGCCCUACUUUAAGGGCCCUGCUGAAGCUUCGUGCAC
Take B17: the binding signal in the assay with U1A was 0.0677 z-score; with LIN28A, -0.247 z-score; in the assay with CIRBP, 1.21 z-score; with DHX36, 0.432 z-score.

B18: hsa-mir-542 (structured_RNA)
RNA: GGGAGAAAACGAAAUUUGUCAGCAAGCAGGUGUACGAAGUUUCAGCCACGAGAUACCAGUGUGCACUUGUGGCUGAAGCUUCGUGCAC
Turning to B18, the binding signal is 0.0776 z-score in the assay with U1A, 1.13 z-score with LIN28A, 1.49 z-score with CIRBP and -0.164 z-score in the assay with DHX36.

B19: hsa-mir-1285-1 (structured_RNA)
RNA: GGGAAAUCACUAUCAUCAGCACAGGGAAGGUGUACGAAGUUUCAGCCAGGCUGGUCUCAAACUCCUGGUCUGGCUGAAGCUUCGUGCAC
On to B19, for which the binding signal with U1A is 0.0686 z-score; with LIN28A, -0.167 z-score; with CIRBP it was 0.381 z-score; in the assay with DHX36, -0.49 z-score.

B20: hsa-mir-6723 (structured_RNA)
RNA: GGGAGUAGUUUUAGACGAAGUAACCACCGGUGUACGAAGUUUCAGCGGGCAUUCCGGAUAGGCCGAGAAAGUGUUGGCUGAAGCUUCGUGCAC
In the case of B20, the binding signal was determined as 0.0575 z-score in the assay with U1A, 0.878 z-score in the assay with LIN28A, 0.567 z-score with CIRBP and 0.256 z-score in the assay with DHX36.

B21: hsa-mir-548ah (structured_RNA)
RNA: GGGAAAGAUUUCCGCCGGUGCAUCACCAGGUGUACGAAGUUUCAGCUUUGCCAAUAAAAGUAAUGACAAAGCUGAAGCUUCGUGCAC
In the case of B21, the binding signal was 0.0755 z-score in the assay with U1A, -1.02 z-score in the assay with LIN28A, -1.74 z-score with CIRBP and -1.33 z-score with DHX36.

B22: hsa-mir-7641-1 (structured_RNA)
RNA: GGGACGGCUUAGAAUGUAGCCUUGCAACGGUGUACGAAGUUUCAGCAAGCAGGGUUGGGCCUGGUUGCUGAAGCUUCGUGCAC
For the molecule B22, the binding signal is 0.0635 z-score with U1A, -0.976 z-score with LIN28A, -0.791 z-score with CIRBP and -0.211 z-score with DHX36.

B23: hsa-mir-519e (structured_RNA)
RNA: GGGAGCAGUAUCCUGCAGAUCAUGCUUGGGUGUACGAAGUUUCAGCACUUUCUGUUUGAAAGAAAACAAAGUGCUGAAGCUUCGUGCAC
In the case of B23, the binding signal in the assay with U1A is 0.0512 z-score; with LIN28A, -0.676 z-score; in the assay with CIRBP, -0.419 z-score; with DHX36, 0.0214 z-score.
